Only a part is listed here, and it is no random draw. The source made the active and inactive calls.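 How the source made its calls: active means inhibition of at least 40% at 10 µM in the primary screen; inactive means the rest.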

The assay relates to intestinal alkaline phosphatase [Mus musculus]. Nature of the assay: inhibitors of mouse IAP, primary screen, biochemical, luminescence, uHTS (AID 2806).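 Further: plate controls were DMSO with enzyme for no effect and no enzyme wells for full effect.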 The settings on record: purified mouse IAP, CDP-Star luminescence, 30 min; at 10 µM; active compounds read high.
Regarding `Cc1ccccc1OP(=O)(Nc1ccccn1)Oc1ccccc1C`, the inhibition was inactive: 0%.

As to `Cc1ccc(OP(=O)(Nc2ccccn2)Oc2ccc(C)cc2)cc1`, the inhibition was inactive: -5.5%.

Turning to `CC(=O)NC(SC(=S)N(CC(C)C)CC(C)C)C(Cl)(Cl)Cl` (stereo not drawn), the inhibition is inactive: -3.6%.

Consider `COC(=O)c1cc2c(s1)N=C(c1ccccc1)N(C)P2(=O)N1CCOCC1` (stereo not drawn), for which the inhibition is inactive: -3%.

With `CCC(=O)N1C2C3N(C(=O)CC)C1C1N(C(=O)CC)C(C(N1C(=O)CC)N3C(=O)CC)N2C(=O)CC`, the inhibition was inactive: 4.4%.

As for `O=C(OC1CN2CCC1CC2)c1ccccc1` (stereo not drawn), the inhibition was inactive: -5.6%.

With `Cc1ccc(NP(=O)(Oc2ccccc2F)Oc2ccccc2F)nc1`, the inhibition is inactive: -7.7%.

As to `CN(C(=O)Cc1ccc(Cl)c(Cl)c1)[C@H]1CCCC[C@@H]1N1CCCC1`, the inhibition was inactive: -2.1%.

Turning to `Cc1cc(SC(NC(=O)c2ccc(F)cc2)C(Cl)(Cl)Cl)ncn1` (stereo not drawn), the inhibition was inactive: -3.8%.

With `CCOP(=O)(Nc1ccccc1)OCC`, the inhibition is inactive: 9.5%.

Regarding `CC(=O)Nc1ccc([As](=O)(O)O)cc1`, the inhibition is inactive: -1.8%.

Regarding `O=C(O)c1ccccc1[As](=O)(O)O`, the inhibition is inactive: 4.5%.

For the compound `O=P(Nc1nc2ccc(Cl)cc2s1)(c1ccccc1)c1ccccc1`, the inhibition is inactive: -4.1%.

With `CCN(N=Nc1nonc1N)c1nonc1N`, the inhibition is inactive: 15.6%.

For the compound `O=[N+]([O-])c1cc([N+](=O)[O-])c(CCN2CCOCC2)c([N+](=O)[O-])c1`, the inhibition is inactive: 22.8%.

Take `Cc1ccc(OP(=O)(Nc2nccs2)Oc2ccc(C)cc2)cc1`: the inhibition is inactive: 10.8%.

As to `COc1ccccc1OP(=O)(Nc1ccc(C)cn1)Oc1ccccc1OC`, the inhibition is inactive: 5.5%.

With `CN1CCCC(OC(=O)C(c2ccccc2)c2ccccc2)C1` (stereo not drawn), the inhibition is inactive: 5.7%.

In the case of `Clc1ccc(Cl)c(NC2=NCC(CBr)S2)c1` (stereo not drawn), the inhibition is inactive: -2.3%.

Consider `NC(=O)c1cc([N+](=O)[O-])cc([N+](=O)[O-])c1N`, for which the inhibition was inactive: -8.3%.

In the case of `Cc1ccc(N/C(=N/P(=O)(N2CCOCC2)N2CCOCC2)N2CCOCC2)cc1`, the inhibition is inactive: 11.6%.

For the compound `CN(C(=O)Cc1ccc(Cl)c(Cl)c1)[C@H]1CCCC[C@H]1N1CCCC1`, the inhibition was inactive: 3%.

In the case of `Nc1cc(N)c2nonc2c1[N+](=O)[O-]`, the inhibition was inactive: 12.2%.

`CC(C)CC(=O)NC(Sc1ccc(Cl)cc1)C(Cl)(Cl)Cl` (stereo not drawn): the inhibition was inactive: -7.1%.

Consider `O=C(NC(Sc1ccncn1)C(Cl)(Cl)Cl)c1ccccc1` (stereo not drawn), for which the inhibition was inactive: -8%.

As to `Cc1c2non([O-])c-2c(C)[n+](=O)[n+]1[O-]`, the inhibition was inactive: -1.9%.

With `Oc1ccccc1CNc1ccccn1`, the inhibition was inactive: -3.1%.

As to `O=[N+]([O-])c1cccc2n[nH]nc12`, the inhibition is inactive: 6.3%.

On to `CC(=O)N1C2C3N(C(C)=O)C1C1N(C(C)=O)C(C(N1C(C)=O)N3C(C)=O)N2C(C)=O`, for which the inhibition was inactive: 4.8%.

Regarding `CCc1nc2c(n1)c1c(non1O)c1c2no[n+]1[O-]`, the inhibition was inactive: 6.1%.

For the compound `O=[N+]([O-])c1cc([N+](=O)[O-])c(CCNc2ccccc2)c([N+](=O)[O-])c1`, the inhibition is inactive: 12.2%.

For the compound `Cc1ccc(NP(=O)(Oc2ccccc2)Oc2ccccc2)nc1`, the inhibition was inactive: -18.2%.

`COc1ccc(C2=NCC(CBr)S2)cc1` (stereo not drawn): the inhibition was inactive: -5.9%.

In the case of `CN(C)C(=O)OCCc1n(C)cc[n+]1C`, the inhibition was inactive: 3.5%.

For `CC(C)=N/N=C(\N)N[N+](=O)[O-]`, the inhibition was inactive: -3.2%.

For `CC1CCN(C(=O)Oc2c(Cl)cc(Cl)c3cccnc23)CC1`, the inhibition is inactive: 3.6%.

For the compound `C[N+]1=C2C=CC=CC=C2SC12C([N+](=O)[O-])=CC([N+](=O)[O-])=C[C-]2[N+](=O)[O-]` (stereo not drawn), the inhibition was active: 60.4%.

Consider `Nc1ccc([As](=O)(O)c2ccc(N)cc2)cc1`, for which the inhibition is inactive: 1.8%.

In the case of `CCN(/C(=N/P(=O)(N1CCOCC1)N1CCOCC1)N1CCOCC1)c1ccc(OC)cc1`, the inhibition was inactive: 3.2%.

On to `O=C(Nc1cc([As](=O)(O)O)ccc1O)c1ccccc1`, for which the inhibition is inactive: 16.7%.

In the case of `O=[N+]([O-])c1cccc(NC2=NCC(CBr)S2)c1` (stereo not drawn), the inhibition is inactive: 7.4%.

With `CC(C)(C)C(=O)NC(Sc1ccncn1)C(Cl)(Cl)Cl` (stereo not drawn), the inhibition is inactive: -4.7%.

Turning to `O=[N+]([O-])c1ncn(CCn2ncnc2[N+](=O)[O-])n1`, the inhibition is inactive: 1.7%.

What is called inhibition is the drop in the measured response relative to a control, in per cent.
